Laboratory results: PubChem BioAssay
The list shows a part of the results, in another mix than the full data. For some assays here: Potency and affinity values are given separately. Calls of active or inactive are those of the source.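 The calls were made as follows, unless noted: active = calcium signal rise more than 3 SD above the low-dose agonist control mean, in both duplicate plates and the primary screen; inactive = the rest.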 Entries that show only a call come without a potency.

Chains of the proteins cited; added tags and fusions are not shown.
UniProt Q9QUQ5, whole entry: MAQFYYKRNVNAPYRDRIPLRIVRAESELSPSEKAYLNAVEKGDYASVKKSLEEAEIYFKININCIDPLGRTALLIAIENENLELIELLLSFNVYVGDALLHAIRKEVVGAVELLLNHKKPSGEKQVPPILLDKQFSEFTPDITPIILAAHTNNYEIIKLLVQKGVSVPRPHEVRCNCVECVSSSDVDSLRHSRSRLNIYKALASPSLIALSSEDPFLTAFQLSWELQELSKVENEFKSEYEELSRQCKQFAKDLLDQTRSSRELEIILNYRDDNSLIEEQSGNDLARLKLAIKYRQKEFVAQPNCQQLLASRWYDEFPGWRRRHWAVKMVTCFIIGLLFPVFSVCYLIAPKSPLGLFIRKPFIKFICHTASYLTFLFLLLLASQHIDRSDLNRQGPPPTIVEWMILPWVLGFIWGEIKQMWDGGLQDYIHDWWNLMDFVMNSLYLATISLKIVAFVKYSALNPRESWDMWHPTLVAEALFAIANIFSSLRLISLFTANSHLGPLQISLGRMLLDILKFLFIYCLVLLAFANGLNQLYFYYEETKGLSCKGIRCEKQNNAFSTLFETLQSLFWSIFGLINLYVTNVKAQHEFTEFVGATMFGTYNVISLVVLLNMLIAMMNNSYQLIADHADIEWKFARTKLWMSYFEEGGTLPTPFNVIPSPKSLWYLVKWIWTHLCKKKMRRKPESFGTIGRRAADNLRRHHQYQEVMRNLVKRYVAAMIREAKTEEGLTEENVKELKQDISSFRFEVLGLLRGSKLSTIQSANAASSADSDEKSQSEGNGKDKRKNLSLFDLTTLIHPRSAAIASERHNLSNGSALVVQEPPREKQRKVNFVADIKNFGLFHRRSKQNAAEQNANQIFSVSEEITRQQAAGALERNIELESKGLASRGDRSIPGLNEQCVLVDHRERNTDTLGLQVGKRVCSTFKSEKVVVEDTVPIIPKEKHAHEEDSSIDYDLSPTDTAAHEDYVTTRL
UniProt Q61143, whole entry: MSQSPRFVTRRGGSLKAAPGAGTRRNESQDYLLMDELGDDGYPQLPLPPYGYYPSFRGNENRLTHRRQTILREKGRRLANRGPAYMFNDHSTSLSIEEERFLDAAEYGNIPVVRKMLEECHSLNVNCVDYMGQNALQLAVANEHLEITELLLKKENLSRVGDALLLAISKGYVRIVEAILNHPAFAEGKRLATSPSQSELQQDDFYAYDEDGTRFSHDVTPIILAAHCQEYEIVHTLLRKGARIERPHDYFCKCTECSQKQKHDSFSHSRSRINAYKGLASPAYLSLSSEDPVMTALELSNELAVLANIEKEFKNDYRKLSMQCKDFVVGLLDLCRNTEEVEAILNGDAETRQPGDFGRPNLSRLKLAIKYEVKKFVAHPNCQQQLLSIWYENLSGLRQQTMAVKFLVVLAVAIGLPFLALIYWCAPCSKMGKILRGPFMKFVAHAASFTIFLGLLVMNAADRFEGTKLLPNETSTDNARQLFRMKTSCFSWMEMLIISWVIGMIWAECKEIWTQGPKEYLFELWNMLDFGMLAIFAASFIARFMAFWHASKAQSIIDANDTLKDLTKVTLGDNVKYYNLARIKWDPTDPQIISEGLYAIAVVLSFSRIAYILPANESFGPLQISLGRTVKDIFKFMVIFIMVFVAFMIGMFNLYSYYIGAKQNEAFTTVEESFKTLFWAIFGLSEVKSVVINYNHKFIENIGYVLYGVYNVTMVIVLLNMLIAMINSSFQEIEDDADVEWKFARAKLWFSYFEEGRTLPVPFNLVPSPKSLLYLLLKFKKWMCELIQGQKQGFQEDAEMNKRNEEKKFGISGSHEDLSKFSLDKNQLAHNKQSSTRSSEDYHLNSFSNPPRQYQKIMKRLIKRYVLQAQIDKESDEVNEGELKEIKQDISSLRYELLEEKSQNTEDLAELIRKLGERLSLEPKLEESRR

Assays:
[1] = biological target: Short transient receptor potential channel 4 (Mus musculus) (UniProt Q9QUQ5); assay: mouse TRPC4 channel activators, dose response, cell-based, HEK293 TRPC4/mu-opioid, Fluo-4 calcium (AID 434937;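 active = primary screen activator hit with a dose response curve and TRPC4 channel activation at any tested dose; inactive = no activation, no dose response, or not a primary hit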); settings: HEK293 TRPC4 cells, Fluo-4 calcium fluorescence ratio; at 20 µM (top of the series)
[2] = biological target: Short transient receptor potential channel 6 (Mus musculus) (UniProt Q61143); assay: inhibition of mouse TRPC6 channel, confirmation, selectivity assay for TRPC4 inhibitor project, cell-based, HEK293, membrane potential dye, duplicate (AID 434948;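 active = active in primary screen and both duplicates, each dropping signal beyond three positive-control SD with fluorescence still positive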); settings: HEK293 TRPC6, membrane potential dye fluorescence, at 10 µM, stimulated with maximal-effect acetylcholine; stronger effect = higher value
Method in brief: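 Test system: TRPC6-expressing HEK293 cells / Probe or stimulus: acetylcholine at maximal (ECmax) concentration, added after compound / Schedule: dye 45 min RT, compound 110 s, agonist read 110 s / Technique: membrane potential dye fluorescence, kinetic read / Read-out basis: control-normalized integrated fluorescence ratio / Repeats: two replicates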

[3] = biological target: Short transient receptor potential channel 6 (Mus musculus) (UniProt Q61143); assay: TRPC6 potentiation by TRPC4 potentiator hits, confirmation, selectivity assay for TRPC4 potentiator project, HEK293 cells, membrane potential dye, duplicate (AID 434952;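 active = compound raising the membrane signal above positive-control mean plus 3 SD in both repeats, and a primary screen hit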); settings: HEK293 TRPC6, membrane potential dye fluorescence; at 10 µM; maximal acetylcholine added after compound
[4] = calcium flux enhancement in mu-opioid HEK293 cells, confirmation, counter-screen for TRPC4 allosteric potentiator project, cell-based, HEK293 mu-opioid receptor line (AID 449724); settings: Fluo-4 calcium flux, at 10 µM, compound added before EC20 DAMGO stimulus
[5] = modulation of acetylcholine-evoked membrane potential, parental HEK293, confirmation, counter-screen for TRPC6 modulator project, cell-based, second counter-screen, membrane potential dye (AID 488926;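 active = membrane potential signal drops by more than 5 SD from the mean control signal, in both duplicate plates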); settings: parental HEK293, membrane potential dye fluorescence; at 10 µM; stronger effect = higher value; after compound, maximal acetylcholine stimulation

CCN(CC)CCCOC(=O)C(O)(c1ccccc1)c1ccccc1
activation ratio [1]: inactive: 37.8
outcome [2]: inactive
outcome [3]: inactive
outcome [4]: inactive
inhibition [5]: active: 116%

CN(C)C1(CNC(=O)c2ccc(Cl)c(S(N)(=O)=O)c2)CCCCC1
outcome [4]: inactive

CN(C)CCOC(=O)C(O)(c1ccccc1)C1CCCC1 (stereo unspecified)
activation ratio [1]: inactive: 3.43
inhibition [2]: active: 5%
outcome [3]: inactive
outcome [4]: inactive

CCN(CC)CC(O)COC(=O)C(O)(c1ccccc1)C1CCCCC1 (stereo unspecified)
inhibition [5]: active: 122%
